Ab-14 heavy chain CDR variants: yeast mating affinities

Values reported by Engelhart et al. 2022, doi:10.1038/s41597-022-01779-4 (FLAb copy).

Target peptide (SARS-CoV-2 spike, HR2 region): PDVDLGDISGINAS

The variants keep the light chain, the linker and the frameworks of Ab-14 (scFv order VH, a (GGGGS)3 linker, VL).
VH: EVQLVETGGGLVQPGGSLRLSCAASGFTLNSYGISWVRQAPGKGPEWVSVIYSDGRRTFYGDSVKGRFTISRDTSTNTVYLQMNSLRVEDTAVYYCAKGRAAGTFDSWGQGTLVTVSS
VL: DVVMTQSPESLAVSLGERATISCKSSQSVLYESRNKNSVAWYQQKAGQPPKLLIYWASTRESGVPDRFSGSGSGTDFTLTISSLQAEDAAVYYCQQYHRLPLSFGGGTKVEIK

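The starting antibody came from a phage panning campaign against this peptide. The library (AAYL49) carries one to three amino acid substitutions per variant, with no insertions or deletions. Affinity was read by AlphaSeq, a pooled yeast mating assay with surface-displayed partners. After mating in shaken culture at 30 °C for 16 h, diploids were selected and their barcode pairs sequenced. Scores were corrected for input abundance and mapped to Kd with protein pairs of known affinity run in the same pool. Mating was done three times.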

Changes read parent residue, position, new residue, counted from the first residue of the VH shown. The read-out is the apparent dissociation constant on a log10 scale (nM): the lower, the stronger. Replicates are averaged; those with no signal do not enter the mean. Where no diploid with the target was found in any replicate, the entry reads "not detected": below detection, most likely a poor binder, though not proof of it. Nonspecific signal, from three strains lacking the peptide, appeared in 15% of pairings of library AAYL49, centred on 4.06 (5% of these signals below 2.83); values are not corrected for it. For reference, the parent read 0.65 as the reference entry and 4.11 (one replicate of three) as a member of this library.

| changes | mean log10 Kd (nM) | detected |
|---|---|---|
| G55R+D62F+D106I | 3.86 | 1 of 3 |
| F27D+Y52W+A101M | 4.38 | 1 of 3 |
| L29S+Y52R+D54V | 2.67 | 1 of 3 |
| R56T+S63Y+T104A | 5.49 | 1 of 3 |
| K65V+A102Y+T104C | 3.93 | 2 of 3 |
| I51V+Y52A+S53M | not detected | 0 of 3 |
| G26K+I51E+D62P | 3.67 | 1 of 3 |
| S31H+F59N+A102F | 4.07 | 3 of 3 |
| V50P+I51A+G55I | 5.21 | 3 of 3 |
| G33K+R56T+T58H | not detected | 0 of 3 |
| G26R+F59P+D106M | not detected | 0 of 3 |
| N30S+Y60H+A102H | 3.67 | 1 of 3 |
| S63G+K65R+G99R | not detected | 0 of 3 |
| G61I+D62Y+D106V | not detected | 0 of 3 |
| F27Q+V50G+R56M | not detected | 0 of 3 |
| G33K+F59M+A102Y | not detected | 0 of 3 |
| G55S+F59W+D106A | 0.96 | 3 of 3 |
| G99S+A101I | 2.03 | 3 of 3 |
| V50L+Y60H+R100P | not detected | 0 of 3 |
| F27V+T28D+S35H | 0.96 | 3 of 3 |
| S35N+A102N+F105Y | 3.69 | 3 of 3 |
| Y52F+G55F+K65T | 3.52 | 1 of 3 |
| I34M+R56Q+Y60Q | 5.96 | 1 of 3 |
| G26S+G55C | not detected | 0 of 3 |
| L29N+N30L+V64S | 5.25 | 2 of 3 |
| I51H+F59L | 5.03 | 2 of 3 |
| L29V+N30S+R57H | 3.51 | 3 of 3 |
| F27W+S53T | 3.79 | 2 of 3 |
| G26Q+F59T+G61W | 3.78 | 2 of 3 |
| I34D+S35G+G55S | not detected | 0 of 3 |
| D54G+R56S+A102I | not detected | 0 of 3 |
| F27R+I51H+G61P | not detected | 0 of 3 |
| N30C+S31N+V50G | not detected | 0 of 3 |
| Y52G+D54P+R100C | not detected | 0 of 3 |
| T28Y+R100D | 0.67 | 3 of 3 |
| G26Y+G55A+A102T | 3.42 | 2 of 3 |
| R56L+G99S+A102E | 2.38 | 3 of 3 |
| N30Q+S31I+T58D | 3.99 | 1 of 3 |
| G33T+I51W+F105G | not detected | 0 of 3 |
| S31V+G61A+R100H | not detected | 0 of 3 |
| I51P+Y52T+R100H | 4.90 | 1 of 3 |
| G26K+S53Q | not detected | 0 of 3 |
| I51D+R56Q+R100E | not detected | 0 of 3 |
| F27R+D54C+S107K | not detected | 0 of 3 |
| I34W+S35R+G61P | not detected | 0 of 3 |
| S31N+T58F+Y60K | not detected | 0 of 3 |
| S35R+S53C | not detected | 0 of 3 |
| F27I+G33E+F105Y | not detected | 0 of 3 |
| Y52W+A101N+G103V | 3.81 | 1 of 3 |
| G55H+G99R+R100M | not detected | 0 of 3 |
| L29Y+I51K+K65H | 3.54 | 1 of 3 |
| G26C+I51T+T58N | 5.02 | 2 of 3 |